{"source": "patent US8636973B2", "about": "“Method of producing pharmacologically pure crystals” (Biosyn Arzneimittel GmbH, priority 2010, dated 2014)", "origin": "cited, not measured here", "settings": "Janitzki, solubility studies"}
{"substance": "sodium selenite [anhydrous material]", "values": [{"measurement": "temperature at which the form is stable / exists", "value": "above 38.5 °C"}]}
